# Key:
# [1] = Uptake of i.v. 111In-ST2210 in lung and non target organs 24 h after inhalation exposure; conditions: 2 h after i.v. 111In-ST2210, 24 h after inhalation
# [2] = set-up: species or system Balb/c mice; conditions: mouse, in vivo
# Method: Balb/c mice of about 20 g were treated in the indicated sites with a solution of avidin or oxidized avidin as obtained following the procedure described at example 1 of WO2009016031 (3.0 mg/ml dissolved in 100 mM sodium acetate, pH 5.5) pre-complexed with ^111In-ST2210. Twenty four hours after injection/deposition, the mice were sacrificed by CO2 asphyxia and the treated sites analysed by means of a gamma counter. Data are reported in FIG. 1, and are expressed as the % of injected dose/100 mg of tissue (% ID/100 mg).
# [3] = test system: EGFR+ A431 cells; experiment: Induction of apoptosis, Annexin V cytofluorimetry; format: cell-based; conditions: 15 minutes incubation, 18 hours in complete medium; with versus without AvidinOX
# Method: (§1) The cells were incubated for 15 minutes with biotinylated cetuximab (b-cetuximab) in the presence or absence of AvidinOX pre-treatment. After washings, the cells were incubated in complete medium for 18 hours. Annexin V positive cells were analysed by cytofluorimetry with FITC-Annexin V apoptosis detection kit I (BD Pharmingen).
# [4] = test system: EGFR− SKMel28 cells; experiment: Induction of apoptosis, Annexin V cytofluorimetry; format: cell-based; conditions: 15 minutes incubation, 18 hours in complete medium; with versus without AvidinOX
# Method: as §1
# [5] = test system: A431 cells; experiment: Inhibition of proliferation, Cell Titer Glow assay; format: cell-based, Human; conditions: with versus without oxidized avidin; even at 0.05 ng and 0.05 pg/ml
# Method: (§2) Human EGFR^+, epidermoid carcinoma cells A431 were incubated in PBS for 1 hour with 1 ml of an anti-EGFR monoclonal biotinylated antibody (i.e., biotinylated cetuximab) in the dose range of 0.05 pg/ml to 5 μg/ml. In one experiment the cells were previously incubated with oxidized avidin meanwhile in the first experiment, cells were only treated with biotinylated cetuximab.
# Proliferation inhibition was measured by Cell Titer Glow assay, Promega. Data are expressed as % of inhibition of cell proliferation in the absence of oxidized avidin (i.e., white bars) or in its presence (i.e., black bars).
# [6] = test system: EGFR+ epidermoid carcinoma cells A431; experiment: Binding of biotinylated cetuximab to cells by cytofluorimetry; format: cell-based, Human; conditions: 0.05 ng and 0.05 pg/ml, in the presence of oxidized avidin
# Method: as §2
# After washings, biotinylated cetuximab binding was detected by cytofluorimetry after incubation with a mouse anti-human antibody conjugated with phycoerythrin (PE).
# [7] = test system: SKMel28 cells; experiment: Inhibition of proliferation, CellTiter-Glow; format: cell-based; conditions: 0.05 pg/ml to 5 μg/ml, 15 minutes, then 48 hours culture; EGFR−
# Method: (§3) Inhibition of proliferation by biotinylated cetuximab with or without pre-treatment with AvidinOX was tested on A431, A549 (i.e., lung carcinoma, low EGFR, KRAS mutated) and SKMel28 cells. For testing the effect of anchored biotinylated cetuximab on cell proliferation, 5×10^5 A431, A549 and SKMel28 cells, with and without pre-incubation with AvidinOX, were seeded in 96 wells microtiter plates (2×10^3 cells/well) in DMEM, 10% FCS. After adhesion, 100 μl of biotinylated cetuximab were added, in triplicates, in the range of 0.05 pg/ml to 5 μg/ml, in DMEM 1% FCS. The cells were washed after 15 minutes and cultivated for 48 hours in DMEM 1% FCS. Cell viability was detected by CellTiter-Glow® (Promega).
# [8] = test system: A431 cells; experiment: Inhibition of proliferation, CellTiter-Glow; format: cell-based, human
# Method: as §3
# [9] = test system: A549 cells; experiment: Inhibition of proliferation, CellTiter-Glow; format: cell-based, human
# Method: as §3
# [10] = AvidinOX pre-incubated cells versus without
substance,measurement,setting,value
"Oxidized avidin: chemically oxidized avidin according to example 1 of WO2009016031, about 8 to 15 aldehyde moieties",111In-ST2210 % ID/g Brain,[1],0.002 ± 0.000 % ID/g
oxidized avidin/^111In-ST2210 complex: oxidized avidin pre-complexed with 111In-ST2210,tissue residence of complex,[2],did not lead to similar results
biotinylated cetuximab: anti-EGFR monoclonal biotinylated antibody,increase of pro-apoptotic effect when AvidinOX is anchored on the cell membrane,[3],at least 3 times
same,increase of pro-apoptotic effect when AvidinOX is anchored on the cell membrane,[4],not of the EGFR^− cells
same,increase of anti proliferative activity owing to binding to membrane bound oxidized avidin,[5],at least 3 times
same,binding to A431 cells at low doses,[6],still visible
same,inhibition of proliferation,[7],not proliferation of EGFR^− cells
same,inhibition of proliferation,"[8]; 0.05 pg/ml to 5 μg/ml, 15 minutes, then 48 hours culture, high EGFR",able to inhibit proliferation
same,inhibition of proliferation when AvidinOX-anchored on the cell surface,[8]; [10],significantly improved
same,inhibition of proliferation,"[9]; 0.05 pg/ml to 5 μg/ml, 15 minutes, then 48 hours culture, low EGFR, KRAS mutated",able to inhibit proliferation
same,inhibition of proliferation when AvidinOX-anchored on the cell surface,[9]; [10],significantly improved
Avidin/^111In-ST2210 complex: avidin pre-complexed with 111In-ST2210 [reference compound],tissue residence of complex,[2],did not lead to similar results
